Values quoted from earlier work, collected in article PMC8668026 (ACS infectious diseases, 2021).

The chains behind the UniProt entries cited, without tags or fusion partners. Residues count along the entry.
UniProt P0AE06, 25-397: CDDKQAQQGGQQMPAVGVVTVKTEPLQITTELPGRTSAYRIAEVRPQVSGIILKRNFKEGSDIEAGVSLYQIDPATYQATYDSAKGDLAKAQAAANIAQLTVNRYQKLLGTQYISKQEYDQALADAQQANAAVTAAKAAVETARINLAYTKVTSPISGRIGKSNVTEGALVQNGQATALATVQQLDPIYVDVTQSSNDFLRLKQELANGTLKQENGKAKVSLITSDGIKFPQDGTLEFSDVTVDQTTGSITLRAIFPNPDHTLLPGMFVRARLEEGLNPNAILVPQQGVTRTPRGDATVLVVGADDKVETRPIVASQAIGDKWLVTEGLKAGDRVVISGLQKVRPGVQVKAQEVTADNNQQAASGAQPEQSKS

Target: AcrA (Escherichia coli, UniProt P0AE06)
Settings: read-out: KD AcrA; SPR; ref [38] and [47]; cited from earlier work

NC(N)=NCCCC(NC(=O)[C@@H](N)Cc1ccccc1)C(=O)Nc1ccc2ccccc2c1 (stereo partly shown) [MC]
Kd: 280 µM
